# PubChem BioAssay AID687031 (Broad Institute, 2013)
# Only a part is listed here, and it is no random draw. Results with a measured potency or affinity are listed apart. Calls of active or inactive are those of the source.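 How the source made its calls: active means fitted curve reaches 30% CPE protection at or below the top valid dose, with every test run called active; inconclusive means test runs disagree, some active and some not; inactive means every test run inactive, including effects in the wrong direction.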
# Assay: antiviral rescue of DENV2-infected BHK-21 cells – cell-based, ATP luminescence, cherry-pick, dose response (AID 687031);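 further: 0% = infected DMSO wells and 100% = uninfected cell wells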
# Conditions: BHK-21 DENV2 CPE protection, 5 d; at 19.5 µM (top of the series)
row,Compound,CPE protection (higher = active)
1,CCOC(=O)c1ccc(NP(C)(=O)Oc2ccc(Cl)cc2)cc1 (stereo unspecified),inactive: 8.13%
